Legend:
[1] = test system: RAW 264.7 cells; assay: Nitric oxide (NO) production inhibition in LPS-stimulated RAW 264.7 cells (GRIESS reagent); conditions: 500 ng/mL LPS, 18 hours
Description: To confirm the anti-inflammatory effect of the cosmetic composition of the present invention, the nitric oxide (NO) production inhibitory effect of each prepared sample was evaluated using RAW 264.7 cells.
Specifically, RAW 264.7 cells were pre-treated with each sample as shown in Table 1 below for 30 minutes, and then 500 ng/mL of lipopolysaccharide (LPS) was added, followed by incubation for 18 hours. After incubation, the supernatant was collected, transferred to a 96-well plate, and allowed to react with GRIESS reagent at room temperature for 15 minutes. The absorbance at 540 nm was measured using an ELISA reader, and the NO production inhibitory ability was calculated using the following equation. [formula] • * Positive control: 100 µM L-NMMA (80.9% NO production inhibition rate) • * Negative control: RAW 264.7 cells treated with LPS only [Table 1]

[2] = test system: IL-1β; assay: Inhibition of capsaicin-induced cytokine IL-1β expression in human keratinocytes (real-time PCR); conditions: Troxerutin 1 ppm; 1 hour pre-treatment, 50 µm capsaicin, 24 hours
Description: To confirm the anti-inflammatory effect of the combination of troxerutin and the arginine-glutamate eutectic mixture, the inhibitory effect on the production of a sensitive irritation factor (cytokine) induced by capsaicin was evaluated in a human keratinocyte cell line.
Specifically, human keratinocytes were pre-treated with each sample as shown in Table 2 below for 1 hour, and then 50 µm capsaicin was added, followed by incubation for 24 hours. After incubation, RNA was extracted and cDNA was synthesized, followed by real-time polymerase chain reaction (real-time PCR) to measure the amount of IL-1β. The sensitive inflammatory cytokine (IL-1β) production inhibitory ability was evaluated using the following equation, and the results are shown in Table 2. [formula]
* Negative control: Human keratinocyte cell line treated with capsaicin only [Table 2]

[3] = Skin permeability with Franz Cell and transdermal diffusion testing membrane; conditions: Troxerutin 1%, 100 µL applied, 24 hours, 37.5 °C, 50% relative humidity
Description: The skin permeability of the combination of troxerutin and the arginine-glutamate eutectic mixture was evaluated.
Specifically, the amount of skin adsorption was evaluated using a Franz Cell (FCDV-15, Labfine). A transdermal diffusion testing membrane (Start-M 25 mm, Merck), which can predict skin permeability, was positioned between a donor chamber and a receptor chamber, and 3 mL of PBS solution was added to the receptor chamber.
As the evaluation method, 100 µL of each of [1% troxerutin] and [1% troxerutin + 10% arginine-glutamate eutectic mixture] was applied onto the membrane. Subsequently, rolling was performed 10 times for 30 seconds using a polyethylene stick, and permeation was then allowed to proceed in a constant temperature and humidity chamber at 37.5 °C and 50% relative humidity for 24 hours. Thereafter, the content of troxerutin in the receptor chamber was measured.
The concentration of troxerutin was determined by fluorescence spectrum measurement (Ex: 360 nm, measurement range: 380 to 700 nm). After quantifying the concentration based on the fluorescence intensity measured at 470 nm, the permeated amount of troxerutin was calculated using the resulting value and the volume of the extraction solvent.

Structure (SMILES) | NO Production Inhibitory Ability (%) ([1]; Troxerutin 1 ppm, 30 min pre-treatment) | IL-1β Inhibition Rate (%) [2] | Permeability [3] | Troxerutin Permeation Amount ([3]; receptor chamber PBS) | NO Production Inhibitory Ability (%) ([1]; Positive control 100 µM)
C[C@@H]1O[C@@H](OC[C@H]2O[C@@H](Oc3c(-c4ccc(OCCO)c(OCCO)c4)oc4cc(OCCO)cc(O)c4c3=O)[C@H](O)[C@@H](O)[C@@H]2O)[C@H](O)[C@H](O)[C@H]1O | 0% | 25.38% | 0.086% | 0.86 µg | 
CNC(=N)NCCC[C@H](N)C(=O)O |  |  |  |  | 80.9%
